Where two headings read alike, the source gives them in different places.
Target: T1, vesicular monoamine transporter 2 (VMAT2) (Rattus norvegicus, UniProt Q01827)
T1 construct: Tissue homogenates of striatum (dissected from rat brain) were prepared; from tissue; host or cells: rat brain striatum homogenate
Assay: In vitro binding assay for Ki determination, rat striatum homogenates
Settings: Avg ± SD, n = 3, read-out: Ki of cold competing drug
Method: Tissue homogenates of striatum (dissected from rat brain) were prepared in 50 mM of HEPES, pH 7.5, and 0.3 M of sucrose. Compounds were examined for their ability to compete for the binding of ^18F-AV-133 or ^18F-AV-133-D6 (^18F-Ia) (0.15-0.2 nM) at concentrations ranging from 10^−7 to 10^−12 M. The binding assays were performed in glass tubes (12×75 mm) in a final volume of 0.25 mL. […] After incubation for 90 min at room temperature, the bound ligand was separated from the free ligand by filtration through glass fiber filters. The filters were washed three times with 4 mL of ice-cold PBS buffer, pH 7.4 and the radioactivity on the filters was counted with a gamma counter (WIZARD^2, Perkin-Elmer).

The chains behind the UniProt entries cited, without tags or fusion partners.
UniProt Q01827, whole entry: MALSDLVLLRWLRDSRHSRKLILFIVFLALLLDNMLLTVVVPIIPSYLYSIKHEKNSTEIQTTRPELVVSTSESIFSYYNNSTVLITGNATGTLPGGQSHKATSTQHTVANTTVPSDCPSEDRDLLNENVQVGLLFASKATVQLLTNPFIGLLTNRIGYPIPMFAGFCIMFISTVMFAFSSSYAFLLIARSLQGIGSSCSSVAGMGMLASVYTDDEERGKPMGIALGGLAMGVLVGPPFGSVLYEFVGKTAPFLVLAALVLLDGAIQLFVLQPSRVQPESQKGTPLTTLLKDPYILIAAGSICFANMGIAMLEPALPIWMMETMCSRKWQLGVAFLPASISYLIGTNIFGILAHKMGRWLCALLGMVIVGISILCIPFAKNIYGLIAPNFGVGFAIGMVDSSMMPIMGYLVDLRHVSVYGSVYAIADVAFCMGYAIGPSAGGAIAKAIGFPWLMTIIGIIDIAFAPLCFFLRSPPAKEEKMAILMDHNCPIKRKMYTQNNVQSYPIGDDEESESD

Ki (hot ligand ^18F-AV-133-D6): 1.65 ± 0.07 nM
Ki (hot ligand ^18F-AV-133): 1.49 ± 0.24 nM
SMILES: COc1cc2c(cc1OC)C1CC(=O)[C@H](CC(C)C)CN1CC2 (mixture of isomers) [(±) TBZ, (±)-tetrabenazine]
